# Screening results from PubChem BioAssay.
# G9a block = inhibitors of human histone lysine methyltransferase G9a; Q96KQ7; G9a H3K9 monomethylation, AlphaScreen, 2 h; Potency, µM (doses to about 102 µM), inactives show at the top dose activity, negative = inhibition, hits mostly inhibitors; hit rate 8.8% among 350,000; AID 504332; note: potency is the fitted concentration of half-maximal effect; % is set by controls: 0 for no effect and ±100 for the full control effect; nearly all actives have a fitted effect of over 75% in size
#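 AlphaScreen read-out: biotin-H3K9 peptide (500 nM) methylation by 20 nM enzyme with 20 uM SAM, 2 h at room temperature after 15 min compound preincubation; anti-monomethyl H3K9 antibody plus donor/acceptor beads, 10 min dark.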
# Sfp PPTase inh = blocks B. subtilis Sfp PPTase activity; 310,000 tested, 3.5% active; AID 1490; Biochemical Sfp PPTase activity, qHTS; Potency, µM, for the others: max response, negative = inhibition, usual class: inhibitors; active = well fitted inhibition curve with a large enough effect; inconclusive = small, poorly fitted or top-dose-only effect, or another doubt; inactive = no such curve, though single readings can be large or run the other way;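 also: the enzyme is Sfp with the accession as filed and its product quenches rhodamine fluorescence; potency is read from the fitted curve at half-maximal effect; 0% = enzyme reaction without inhibitor and -100% = no enzyme wells; top concentration of the series not given in the record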
#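 With Hepes-Na pH 7.6 buffer containing 10 mM MgCl2, Sfp (15 nM) modified BHQ-2-YbbR (12.5 uM) using rhodamine-CoA (5 uM). Two reads 30 minutes apart at 525/598 nm yielded each well's rate.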
# KDM4E inh = inhibitors of human JMJD2E histone demethylase | B2RXH2 | Potency, µM (titrated, usually from 57.1 µM), inactives show at the highest dose activity change, negative = inhibition, hits mostly inhibitors | JMJD2E catalytic domain, FDH-coupled NADH fluorescence (FDH is formaldehyde dehydrogenase) | AID 2147 | hit rate 1.6% among 230,000; active = well fitted inhibition curve with a large enough effect, not every such curve was filed as active; inconclusive = small, poorly fitted or top-dose-only effect, or another doubt; inactive = no such curve, though single readings can be large or run the other way;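 note: potency is the fitted concentration of half-maximal effect; 0% = wells with enzyme and -100% = buffer wells without enzyme; nearly all actives have a fitted effect of over 50% in size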
# ALDH1A1 inh = ALDH1A1 (human) enzyme inhibition | P00352 | Purified ALDH1A1, NADH fluorescence, propionaldehyde substrate | Potency, µM (doses to about 75.3 µM), for the others: top-dose activity, negative = inhibition, hits mostly inhibitors | hit rate 7.3% among 220,000 | AID 1030; active = well fitted inhibition curve with a large enough effect, not every such curve was filed as active; inconclusive = small, poorly fitted or top-dose-only effect, or another doubt; inactive = no such curve, though single readings can be large or run the other way;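 note: potency is the fitted concentration of half-maximal effect; plate controls were no enzyme wells and a reference inhibitor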
# Lamin A splicing = changes lamin A minigene splicing in HeLa cells; Potency, µM (series often up to 46.1 µM), inactives show at the highest dose ratio change, negative = inhibition, actives largely listed as inhibitors; hit rate 0.01% among 200,000; HeLa LMNA splicing GFP/RFP minigene ratio, 48 h; AID 1487; active = well fitted inhibition curve with a large enough effect in the signal ratio, with a control signal flat, not every such curve was filed as active; inconclusive = small, poorly fitted or top-dose-only effect, or effect the other way, or a change in a side signal; the % refers to the signal ratio; note: potency is the fitted concentration of half-maximal effect; % is set by controls: 0 for no effect and ±100 for the full control effect
#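 Read-out is the ratio of GFP to DsRed2 object intensity, acquired by 488 nm laser-scanning cytometry on HeLa lamin A-EGFP minigene reporter cells. Compound incubation 48 hrs at 37 °C in Opti-MEM with 2% FBS; DMSO 0.5% final.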
# miR-21 reporter = raises the signal of a miR-21 reporter | HeLa miR-21 FLuc reporter, luciferase, 48 h | Potency, µM (highest dose often 38.3 µM), inactives show at the highest dose reporter change, positive = more light | 340,000 tested, under 10 active | AID 2288; active = well fitted rising curve with a large enough effect; inconclusive = small, poorly fitted or top-dose-only effect; inactive = no such curve, though single readings can be large or run the other way;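 note: % of control where 0% means no effect; miR-21 action dims this reporter so a rising signal means less miR-21 action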
#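 HeLa cells stably expressing CMV-driven firefly luciferase with a downstream miR-21 binding sequence, endogenously expressing miR-21, were treated with titrations (up to about 40uM final) for 48 hours at 37 degree Celsius. Luciferase luminescence was read after lysis.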
# Starred values were filed as active, the others as inactive; ? = inconclusive; · = no result given; [ ] = dose if it differs, or a comment. In the library only some 13% were active in any assay of this set; here they are far more common. Unless noted, calls come from the whole dose curve; as a rule, active = well fitted curve in the direction sought with a large enough effect; inconclusive = small, poorly fitted or top-dose-only effect, or another doubt; inactive = no such curve, though single readings can be large; an effect the other way counts as inactive or inconclusive.
entry | Molecule | KDM4E inh | G9a block | miR-21 reporter
1 | CCN1C(=O)[C@H]2[C@H]3[C@H](O)[C@H](O)C/C(=N/OC[C@@H](O)[C@H]4O[C@H]5OC(C)(C)O[C@H]5[C@@H]4O)[C@@H]3CC[C@@H]2C1=O | · | · | ·
2 | CC1(C)O[C@H]2OC([C@H](O)CON3C(=O)c4ccccc4C3=O)[C@H](O)[C@H]2O1 (stereo partly drawn) | -0.5% | 44.7µM* | -0.4%
3 | CN1CCN(CC(=O)Nc2nc3ccccc3s2)CC1 | · | 35.5µM* | -20.9%
4 | COc1ccc2nc(NC(=O)C34CC5CC(CC(NC(C)=O)(C5)C3)C4)sc2c1 | · | · | -10.5%
5 | O=C(CN1CCOCC1)Nc1nc2ccc(Br)cc2s1 | -11.9% | 50.1µM* | -18.7%
6 | CCOc1ccc2nc(NC(=O)C34CC5CC(CC(NC(C)=O)(C5)C3)C4)sc2c1 | · | 15.8µM* | -15.2%
7 | CCOc1ccc2nc(NC(=O)Nc3ccccc3)sc2c1 | 3.7% | -19.6%[59 µM] | -43.9%
8 | CCOc1ccc2nc(NC(=O)Nc3cccs3)sc2c1 | 1.6% | 44.7µM* | -25.7%
9 | CCN1CCN(CC(=O)Nc2nc3ccccc3s2)CC1 | · | · | -6.5%
10 | O=C(CN1CCOCC1)Nc1nc2ccc(Cl)cc2s1 | · | -21.4% | -14.9%
11 | CCCC(=O)NCC(c1ccc2c(c1)OCO2)N1CCOCC1 (stereo not drawn) | · | -10.2%[59 µM] | -1.7%
12 | COc1ccc(CNC(=O)c2cc3c(=O)oc4ccc(C)cc4c3s2)c(OC)c1 | · | -1.7%[59 µM] | 2.1%

entry | Sfp PPTase inh | ALDH1A1 inh | Lamin A splicing
1 | 24.5% | 14.1%[13.5 µM] | ·
2 | -2.2% | 4.0% | 3.7%
3 | -8.0% | · | ·
4 | -7.0% | · | ·
5 | -4.1% | 12.6µM* | -8.3%
6 | 14.4% | · | ·
7 | 6.4% | 1.2% | 5.6%
8 | -20.9% | 1.9% | 4.4%
9 | ? | · | ·
10 | 9.3% | · | ·
11 | · | · | 18.1%[46 µM]
12 | · | · | ·

# (list continues)
entry | Molecule | KDM4E inh | G9a block | miR-21 reporter
13 | Cc1cccc(OCc2nnc(SCC(=O)NC3CCCCC3)n2C)c1 | · | 5.8% | 1.0%
14 | CC(C)Cn1c(=O)c2c(nc3n2CC(C)CN3Cc2ccccc2)n(C)c1=O (stereo not drawn) | · | ? | 11.4%
15 | Cc1cccc(OC(=O)c2snnc2C)c1 | · | ? | -2.3%
16 | CCOc1ccc(CCNC(=O)CN2C(=O)COc3ccc(S(=O)(=O)N4CCC(C)CC4)cc32)cc1 | · | 9.6%[59 µM] | 7.7%
17 | CCC(=O)N1CCc2cc(S(=O)(=O)NCCC(=O)NCc3ccc(C)cc3)ccc21 | · | 8.1%[59 µM] | -2.5%
18 | CCOc1ccc2nc(NC(=O)Cn3cnc4c3c(=O)n(C)c(=O)n4C)sc2c1 | ? | 79.4µM* | -8.8%
19 | CCOc1ccc2nc(NC(=S)NCc3ccccc3)sc2c1 | -19.8% | 7.08µM* | -15.2%
20 | CCOc1ccc2nc(NC(=O)CN3CCN(CC)CC3)sc2c1 | · | 44.7µM* | -22.8%
21 | CCOc1ccc2nc(NC(=O)CSc3nc4c(c(=O)n(C)c(=O)n4C)n3C(C)C)sc2c1 | 1.4% | -24.2%[59 µM] | -4.3%
22 | CCOc1ccc2nc(NC(=O)c3ccco3)sc2c1 | · | · | -2.3%
23 | CCOc1ccc2nc(NC(=O)CN3CCOCC3)sc2c1 | 6.3% | 5.3% | -17.7%
24 | CCOc1ccc2nc(NC(=O)c3ccoc3C)sc2c1 | ? | 42.4%[59 µM] | -8.8%

entry | Sfp PPTase inh | ALDH1A1 inh | Lamin A splicing
13 | -7.9% | · | ·
14 | 15.8% | · | ·
15 | · | · | 7.1%[46 µM]
16 | · | · | ·
17 | · | · | ·
18 | -2.8% | 1.0% | 7.5%
19 | ? | ? | 5.6%
20 | -5.9% | · | ·
21 | 3.6% | 8.9% | ?
22 | 6.5% | · | ·
23 | 15.6% | 12.9% | ·
24 | 89.1µM* | ? | ?

# More results:
entry | Molecule | KDM4E inh | G9a block | miR-21 reporter
25 | CCCOc1ccc(-c2cccc(NS(=O)(=O)c3ccc(CC)cc3)c2)nn1 | · | -0.9%[59 µM] | 5.0%
26 | CN1CCC(=O)N(C(CSc2ccc(Br)cc2)Cc2ccccc2)CC1 (stereo not drawn) | · | · | ·
27 | CC1(c2ccccc2Cl)NC(=O)N(CC(=O)NCc2ccc3c(c2)OCO3)C1=O (stereo not drawn) | · | -7.5% | 0.3%
28 | CCOc1ccc2nc(NC(=O)CN3CCN(C)CC3)sc2c1 | 6.2% | 35.5µM* | -32.5%
29 | Cc1cc(NC(=O)CN2CCOCC2)n(-c2nc3ccccc3s2)n1 | -2.2% | 4.0%[59 µM] | -15.0%
30 | CC(C)c1ccc(NC(=O)CSC2=Nc3ccccc3C3=NC(CCC(=O)NCc4cccs4)C(=O)N23)cc1 (stereo not drawn) | · | 10.2%[59 µM] | 20.9%
31 | CC1CCCC/C1=N/Nc1ccc([N+](=O)[O-])cc1[N+](=O)[O-] (stereo not drawn) | -11.4% | 35.5µM* | 0.6%
32 | CC1C/C(=N/Nc2ccc([N+](=O)[O-])cc2[N+](=O)[O-])CC(C)(C)C1 (stereo not drawn) | -3.0% | 10µM* | -1.9%
33 | COC/C=C/C1=CC2=CC(=O)C(C)(OC(=O)c3cnc4ccccc4n3)C(=O)C2=CO1 (stereo not drawn) | -10.8% | · | ·
34 | Cc1ccc(NCN2C(=O)C(=O)c3ccccc32)nc1 | 5.1% | 23.4%[59 µM] | 14.2%
35 | COc1ccc(OCC(O)CNC(C)c2ccccc2)cc1 (stereo not drawn) | · | 15.3% | -2.4%
36 | CC(NCC(O)COc1ccc2ccccc2c1)c1ccccc1 (stereo not drawn) | · | 14.1µM* | 5.4%

entry | Sfp PPTase inh | ALDH1A1 inh | Lamin A splicing
25 | · | · | -21.3%[46 µM]
26 | -11.5% | · | ·
27 | 7.2% | · | ·
28 | -0.6% | 2.5% | -3.1%
29 | -17.1% | 22.4µM* | -3.8%
30 | · | · | -2.6%[46 µM]
31 | -5.3% | ? | 21.3%
32 | -10.1% | ? | -9.4%
33 | -16.3% | 0.0% | ·
34 | 7.8% | 0.141µM* | -13.1%
35 | -5.2% | · | ·
36 | -4.9% | · | ·

# As a short view, some entries already given.
entry | Molecule | KDM4E inh | G9a block | miR-21 reporter
26 | CN1CCC(=O)N(C(CSc2ccc(Br)cc2)Cc2ccccc2)CC1 (stereo not drawn) | · | · | ·
27 | CC1(c2ccccc2Cl)NC(=O)N(CC(=O)NCc2ccc3c(c2)OCO3)C1=O (stereo not drawn) | · | -7.5% | 0.3%
28 | CCOc1ccc2nc(NC(=O)CN3CCN(C)CC3)sc2c1 | 6.2% | 35.5µM* | -32.5%

entry | Sfp PPTase inh | ALDH1A1 inh | Lamin A splicing
26 | -11.5% | · | ·
27 | 7.2% | · | ·
28 | -0.6% | 2.5% | -3.1%

# The list goes on:
entry | Molecule | KDM4E inh | G9a block | miR-21 reporter
37 | CCCCC(=O)NCCc1c(Cc2ccccc2)[nH]c2ccccc12 | -23.7% | 12.6µM* | ·
38 | O=S1(=O)C2CC3C=CC2(O3)C(O)C(Cc2ccccc2)N1Cc1cccc(F)c1 (stereo not drawn) | · | · | ·
39 | Cc1nc2c(-c3ccc(Cl)cc3)c(C)[nH]n2c(=O)c1Cc1ccccc1 | 31.6µM* | -26.2% | ?
40 | Cc1nc2c(-c3ccccc3)c(C)[nH]n2c(=O)c1Cc1ccccc1 | ? | 48.7% | 23.9%
41 | Cc1nc2c(-c3ccc(F)cc3)c(C)[nH]n2c(=O)c1Cl | · | 50.1µM* | 7.3%
42 | CCn1c(SCC(=O)Nc2ccc(N3CCOCC3)cc2)nnc1-c1ccco1 | · | 3.4%[0.501 µM] | ·
43 | O=C(OC(C(=O)NCc1ccc2c(c1)OCO2)c1ccccc1F)c1ccco1 (stereo not drawn) | 1.0% | -18.7%[59 µM] | -17.9%
44 | O=C(OC(C(=O)NCc1ccccc1)c1ccccc1F)c1ccco1 (stereo not drawn) | · | -8.9% | 1.5%
45 | O=C(NCCN1CCOCC1)C1(C(F)(F)F)CC(CCCO)CCCO1 (stereo not drawn) | · | · | ·
46 | COc1ccc2nc(NC(=O)CSc3n[nH]c(N)n3)sc2c1 | · | 56.2µM* | ·
47 | COc1ccc2nc(NC(=O)CSc3nc(SC)ns3)sc2c1 | ? | 20µM* | -43.4%
48 | CSc1nsc(SCC(=O)NCc2ccc(C)cc2)n1 | · | -12.0% | -2.6%
49 | COc1ccc2nc(NC(=O)CSc3nc(C)cc(=O)[nH]3)sc2c1 | -4.1% | 2.82µM* | -26.2%

entry | Sfp PPTase inh | ALDH1A1 inh | Lamin A splicing
37 | -6.4% | ? | ·
38 | 8.0% | · | ·
39 | 8.8% | ? | ·
40 | 15.6% | -5.5% | ?
41 | 13.6% | · | ·
42 | · | · | ·
43 | 17.5% | 1.58µM* | 11.4%
44 | -5.2% | · | ·
45 | 16.0% | · | ·
46 | · | · | ·
47 | -27.3% | -13.4% | ?
48 | 4.0% | · | ·
49 | -7.0% | ? | -2.9%
